In patent US7348426B1, “Substituted bicyclic heterocycles, process for their preparation and their use as antiobesity and hypocholesterolemic agents” (Dr. Reddy's Laboraties Limited, priority 1999, dated 2008):

What was measured:
[1] = test system: hypercholesterolemic Sprague Dawley rats; settings: 1 mg/kg orally for 3 days
[2] = test system: cholesterol fed Syrian Hamsters; test: Body weight reducing effect in cholesterol fed hamsters; type: in vivo; settings: 10 mg/kg/day orally for 15 days

For “(±) 3-[4-[2-Dihydro-1,4-benzoxazin-4-yl)ethoxy]phenyl]-2-ethoxypropanoic acid, sodium salt”, the “HDL (%) ↑ increase” value [1] was 37%, the “Total Cholesterol (%) ↓ reduction” value [1] was 57% and the “Triglyceride (%) ↓ reduction” value [1] was 43%. For the same substance, the “LDL (%) ↓ reduction” value ([1]; LDL calculated from total cholesterol, HDL and triglyceride) was 58%, the “VLDL (%) ↓ reduction” value ([1]; VLDL calculated from total cholesterol, HDL and triglyceride) was 79% and the “Body weight Reduction (%)” value [2] was 12%.
